Experimental data published in patent US10077273B2, “SHMT inhibitors” (The Trustees of Princeton University, priority 2016, dated 2018).

Sequences of proteins named here, by UniProt entry; tags and fusion partners are left off. Residues count along the entry.
UniProt P34897, 30-504 limits assumed: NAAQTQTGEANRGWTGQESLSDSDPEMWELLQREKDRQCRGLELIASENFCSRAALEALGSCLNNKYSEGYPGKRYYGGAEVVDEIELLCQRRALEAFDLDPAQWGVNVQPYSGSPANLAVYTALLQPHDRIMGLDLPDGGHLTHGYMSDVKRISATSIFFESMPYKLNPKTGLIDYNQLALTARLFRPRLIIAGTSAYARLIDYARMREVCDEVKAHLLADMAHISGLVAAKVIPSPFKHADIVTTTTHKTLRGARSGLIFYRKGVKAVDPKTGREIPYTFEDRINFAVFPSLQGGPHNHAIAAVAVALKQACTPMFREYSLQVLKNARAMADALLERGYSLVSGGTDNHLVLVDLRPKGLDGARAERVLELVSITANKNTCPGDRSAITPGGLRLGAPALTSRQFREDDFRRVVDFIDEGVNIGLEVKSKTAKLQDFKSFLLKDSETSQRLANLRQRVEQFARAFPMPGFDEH
UniProt P34896, 2-483 limits assumed: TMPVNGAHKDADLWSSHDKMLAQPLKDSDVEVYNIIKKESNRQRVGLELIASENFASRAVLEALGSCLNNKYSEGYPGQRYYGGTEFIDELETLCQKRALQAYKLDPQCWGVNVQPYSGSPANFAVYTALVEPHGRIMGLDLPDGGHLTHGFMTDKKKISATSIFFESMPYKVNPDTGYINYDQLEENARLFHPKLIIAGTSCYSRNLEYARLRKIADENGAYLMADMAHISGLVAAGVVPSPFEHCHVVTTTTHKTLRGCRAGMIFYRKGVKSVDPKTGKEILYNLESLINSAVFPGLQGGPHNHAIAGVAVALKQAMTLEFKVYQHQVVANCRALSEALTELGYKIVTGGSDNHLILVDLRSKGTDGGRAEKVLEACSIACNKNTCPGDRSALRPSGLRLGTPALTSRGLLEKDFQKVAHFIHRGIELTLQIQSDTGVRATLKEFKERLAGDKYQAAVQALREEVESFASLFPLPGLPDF

Assays:
human SHMT2 = human SHMT2 (Homo sapiens, UniProt P34897)
human SHMT1 = human SHMT1 (Homo sapiens, UniProt P34896); conditions: read-out: SHMT1 IC50

| SMILES | IC50 (human SHMT2; read-out: SCHMT2 IC50) | IC50 (human SHMT1) | other results |
| --- | --- | --- | --- |
| Cc1n[nH]c2c1C(c1cc(C#CCCCO)cc(C(F)(F)F)c1)(C(C)C)C(C#N)=C(N)O2 (stereo not drawn) [Compound 61, 6-amino-4-(3-(5-hydroxypent-1-yn-1-yl)-5-(trifluoromethyl)phenyl)-4-isopropyl-3-methyl-1,4-dihydropyrano[2,3-c]pyrazole-5-carbonitrile] | – | – | IC50 (human SHMT2; read-out: SHMT2 IC50): 0.78 nM |
| Cc1n[nH]c2c1C(c1cc(C#CCCC(=O)N[C@H](CCC(=O)O)C(=O)O)cc(C(F)(F)F)c1)(C(C)C)C(C#N)=C(N)O2 (stereo partly drawn) [Compound 70] | 1 nM | – | – |
| Cc1n[nH]c2c1C(c1cc(Br)cc(C(F)(F)F)c1)(C(C)C)C(C#N)=C(N)O2 (stereo not drawn) [Compound a, 6-amino-4-(3-bromo-5-(trifluoromethyl)phenyl)-4-isopropyl-3-methyl-1,4-dihydropyrano[2,3-c]pyrazole-5-carbonitrile] | – | – | IC50 (human SHMT2; read-out: SHMT2 IC50): 42 nM |
| Cc1n[nH]c2c1C(c1cc(C#N)cc(C#CCCC(=O)O)c1)(C(C)C)C(C#N)=C(N)O2 (stereo not drawn) [Compound 68] | 0.4 nM | 1.7 nM | – |
| Cc1n[nH]c2c1C(c1cc(C#CCCCO)cc(C(F)(F)F)c1)(C(C)C)C(C#N)=C(N)O2 (stereo not drawn) [1 (enantiomeric ally active peak)] | 0.79 nM | – | – |
| Cc1n[nH]c2c1C(c1cc(C#CCCC(=O)N[C@@H](CCC(=O)O)C(=O)O)cc(C(F)(F)F)c1)(C(C)C)C(C#N)=C(N)O2 (stereo partly drawn) [Compound 69] | 0.8 nM | – | – |
| Cc1n[nH]c2c1C(c1cc(C#CCCC(N)=O)cc(C(F)(F)F)c1)(C(C)C)C(C#N)=C(N)O2 (stereo not drawn) [Compound 11] | 1.4 nM | 0.4 nM | – |
| Cc1n[nH]c2c1C(c1cc(C#CCCCO)cc(CO)c1)(C(C)C)C(C#N)=C(N)O2 (stereo not drawn) [Compound 74] | 19 nM | 17 nM | – |
| Cc1n[nH]c2c1C(c1cc(C#CCCC(=O)NC(C)(C)C(=O)O)cc(C(F)(F)F)c1)(C(C)C)C(C#N)=C(N)O2 (stereo not drawn) [Compound 72] | 2 nM | 4 nM | – |
| Cc1n[nH]c2c1[C@@](c1cccc(C(F)(F)F)c1)(C1CCC1)C(C#N)=C(N)O2 [HK-1] | – | – | IC50 (human SHMT2; read-out: SHMT2 IC50, Table 3): > 5000 nM |
| Cc1n[nH]c2c1C(c1cc(C#CCCCN)cc(C(F)(F)F)c1)(C(C)C)C(C#N)=C(N)O2 (stereo not drawn) [Compound 8] | 43 nM | 8 nM | – |
| Cc1n[nH]c2c1C(c1cc(C#CCCCO)cc(C(F)(F)F)c1)(C(C)C)C(C#N)=C(N)O2 (stereo not drawn) [Compound 1] | 0.65 nM | – | – |
| COC(=O)CCC#Cc1cc(C(F)(F)F)cc(C2(C(C)C)C(C#N)=C(N)Oc3[nH]nc(C)c32)c1 (stereo not drawn) [Compound 73] | 7.5 nM | – | – |

Where two headings read alike, the source gives them in different places.
